Reference: patent US20060094649A1, “Hla-a1,-a2,-a3,-a24,-b7, and-b44 tumor associated antigen peptides and compositions” (priority 2002, published 2006)

These compounds were tested on HLA-A3 supertype molecules (assay: HLA-A3 supertype cross-binding (A*0301, A*1101, A*3101, A*3301, A*6801)). Settings: not given.
“p53.240B3K9: p53-derived A3 supertype analog, B at position 3 and K at position 9” was tested, and the “change in A3 supertype binding, analog vs wildtype (in words)” value was “improved binding to one of the two primary alleles”.

Same assay, conditions: Table 16d, p53-derived
In the case of CC(C)[C@H](NC(=O)[C@@H](N)CCCCN)C(=O)N[C@@H](Cc1ccc(O)cc1)C(=O)N[C@@H](CCC(N)=O)C(=O)NCC(=O)N[C@@H](CO)C(=O)N[C@@H](Cc1ccc(O)cc1)C(=O)NCC(=O)N[C@@H](Cc1ccccc1)C(=O)N[C@@H](CCCCN)C(=O)O [compound 106], the “Number of A3 alleles crossbound” value was 4. CC[C@H](C)[C@H](NC(=O)[C@H](C)NC(=O)[C@H](CCSC)NC(=O)[C@H](C)NC(=O)[C@H](CCCNC(=N)N)NC(=O)[C@@H](NC(=O)[C@H](CCCNC(=N)N)NC(=O)[C@@H](NC(=O)CN)C(C)C)C(C)C)C(=O)N[C@@H](Cc1ccc(O)cc1)C(=O)N[C@@H](CCCCN)C(=O)O [compound 112] was tested, and the “Number of A3 alleles crossbound” value was 3. CC[C@H](C)[C@H](NC(=O)[C@H](C)NC(=O)[C@H](CCSC)NC(=O)[C@H](C)NC(=O)[C@H](CCCNC(=N)N)NC(=O)[C@@H](NC(=O)[C@@H](N)CCCNC(=N)N)C(C)C)C(=O)N[C@@H](Cc1ccc(O)cc1)C(=O)N[C@@H](CCCNC(=N)N)C(=O)O [compound 114] was tested, and the “Number of A3 alleles crossbound” value was 3. In the case of CSCC[C@H](NC(=O)CNC(=O)CNC(=O)[C@H](CCSC)NC(=O)[C@H](CS)NC(=O)[C@H](CO)NC(=O)[C@@H](N)CO)C(=O)N[C@@H](CC(N)=O)C(=O)N[C@@H](CCCNC(=N)N)C(=O)O [compound 117], the “Number of A3 alleles crossbound” value was 1. With CC[C@H](NC(=O)[C@@H](NC(=O)[C@@H](N)CO)C(C)C)C(=O)N[C@@H](CCSC)C(=O)NCC(=O)NCC(=O)N[C@@H](CCSC)C(=O)N[C@@H](CC(N)=O)C(=O)N[C@@H](CCCNC(=N)N)C(=O)O [compound 119] the “Number of A3 alleles crossbound” value was 4. For CC[C@H](NC(=O)[C@@H](NC(=O)[C@@H](N)CO)C(C)C)C(=O)N[C@@H](CCSC)C(=O)NCC(=O)NCC(=O)N[C@@H](CCSC)C(=O)N[C@@H](CC(N)=O)C(=O)N[C@@H](CCCCN)C(=O)O [compound 120], the “Number of A3 alleles crossbound” value was 3. For CC[C@H](NC(=O)[C@@H](NC(=O)[C@@H](N)CO)C(C)C)C(=O)N[C@@H](CCSC)C(=O)NCC(=O)NCC(=O)N[C@@H](CCSC)C(=O)N[C@@H](CC(N)=O)C(=O)N[C@@H](CCCNC(=N)N)C(=O)N[C@@H](CCCCN)C(=O)O [compound 123], the “Number of A3 alleles crossbound” value was 3. For CSCC[C@H](NC(=O)[C@H](CC(C)C)NC(=O)[C@H](CCCCN)NC(=O)[C@H](CCCCN)NC(=O)[C@H](Cc1c[nH]cn1)NC(=O)[C@H](CCCNC(=N)N)NC(=O)[C@H](CO)NC(=O)[C@@H](NC(=O)[C@@H](N)CO)C(C)C)C(=O)N[C@@H](Cc1ccccc1)C(=O)N[C@@H](CCCCN)C(=O)O [compound 127], the “Number of A3 alleles crossbound” value was 3. In the case of CSCC[C@H](NC(=O)[C@H](CC(C)C)NC(=O)[C@H](CCCCN)NC(=O)[C@H](CCCCN)NC(=O)[C@H](Cc1c[nH]cn1)NC(=O)[C@H](CCCNC(=N)N)NC(=O)[C@H](CO)NC(=O)[C@@H](NC(=O)[C@@H](N)CO)C(C)C)C(=O)N[C@@H](Cc1ccccc1)C(=O)N[C@@H](CCCNC(=N)N)C(=O)O [compound 128], the “Number of A3 alleles crossbound” value was 3.

Same assay, conditions: besides A*1101
With “CEA.419: CEA-derived A3 supertype wildtype peptide (Table 16a) (TISPSYTYYR)” the “number of additional A3 supertype alleles bound” value was “three”.

Same assay, conditions: of 5 alleles; affinity ≦500 nM
CSCC[C@H](NC(=O)[C@@H](N)CCCCN)C(=O)N1CCC[C@H]1C(=O)N[C@@H](CS)C(=O)N[C@@H](CCC(N)=O)C(=O)N[C@@H](CC(C)C)C(=O)N[C@@H](C)C(=O)N[C@@H](CCCCN)C(=O)O [p53.132] was tested, and the “number of A3 supertype alleles bound” value was 3. For “MAGE2.277: MAGE2-derived A3 supertype wildtype peptide (Table 16c) (ALIETSYVK)”, the “number of A3 supertype alleles bound” value was 3. For “MAGE3.189: MAGE3-derived A3 supertype wildtype peptide (Table 16c) (LLGDNQIMPK)”, the “number of A3 supertype alleles bound” value was 3. For “p53.124: p53-derived A3 supertype wildtype peptide (Table 16d) (CTYSPALNK)”, the “number of A3 supertype alleles bound” value was 3.
